Assay results reported in US12606541B2, “PPARg modulators and methods of use” (Eisai R&D Management Co., Ltd., priority 2020, dated 2026).

The chains behind the UniProt entries cited, without tags or fusion partners. Residues count along the entry.
UniProt P37231, 234-505 limits assumed: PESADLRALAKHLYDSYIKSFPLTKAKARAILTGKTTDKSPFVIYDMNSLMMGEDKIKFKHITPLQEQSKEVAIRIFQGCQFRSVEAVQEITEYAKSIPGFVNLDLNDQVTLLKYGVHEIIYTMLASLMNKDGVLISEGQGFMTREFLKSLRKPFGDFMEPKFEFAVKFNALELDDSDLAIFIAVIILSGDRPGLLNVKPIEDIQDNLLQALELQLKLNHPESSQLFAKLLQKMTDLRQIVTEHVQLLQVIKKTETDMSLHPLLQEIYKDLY

Columns and labels:
[1] = target: His6-TEV-PPARγ-(234-505) (Homo sapiens, UniProt P37231); assay: TR-FRET Assay to Measure Co-R Peptide Recruitment to PPARγ
[2] = test system: UM-UC-9 engineered cells; assay: Cell proliferation / short-term viability assay, CellTiter-Glo 144 h
[3] = read-out: TR-FRET i-Ag, Co-R peptide (SMRT-ID2) recruitment, top final concentration 20 μM
[4] = read-out: CTGlo 144 h UMUC9.5, G150

Row | SMILES | AC50 [1, 3] | IC50 [2, 4] | AC50 ([1]; read-out: TR-FRET i-Ag, Co-R peptide (SMRT-ID2) recruitment, top final concentration 20 μM, tested form: mixture of four diastereomers (piperidin)) | IC50 ([2]; read-out: CTGlo 144 h UMUC9.5, G150, tested form: mixture of four diastereomers (piperidin))
1 | COc1cc(-c2cc(C(=O)N3CC[C@H](C(=O)NC4CCC(O)(C(F)(F)C(F)(F)F)CC4)CC34CC4)n[nH]2)c(F)cn1 (single isomer, unassigned) [Example 373-A] | 3.2 nM | 0.9 nM | – | –
2 | COc1cc(-c2cc(C(=O)N3CC[C@H](C(=O)NC4CCN(c5ccc(C#N)cn5)C4)CC34CC4)n[nH]2)c(F)cn1 (single isomer, unassigned) [Example 489-A] | 1.9 nM | 6.3 nM | – | –
3 | COc1cc(-c2cc(C(=O)N3[C@@H]4CC[C@H]3C[C@H](C(=O)NC3CCC(O)(C(F)(F)F)CC3)C4)n[nH]2)c(Cl)cn1 (single isomer, unassigned) [Example 259-B] | 6.5 nM | 31.3 nM | – | –
4 | CCN1CC(NC(=O)[C@@H]2C[C@H]3CC[C@@H](C2)N3C(=O)c2cc(-c3cc(OC)ncc3F)[nH]n2)CCC1C(F)(F)F (single isomer, unassigned) [Example 299-D] | 38.7 nM | 137 nM | – | –
5 | COc1cc(-c2cc(C(=O)N3CC(C)C(C(=O)N[C@H]4CC[C@@](O)(C(F)(F)F)CC4)CC3C)n[nH]2)c(F)cn1 (single isomer, unassigned) [Example 298-A] | 6510 nM | > 4000 nM | – | –
6 | COc1cnc(CNC(=O)C2CCN(C(=O)c3cc(-c4cc(C)ncc4F)[nH]n3)C3(CC3)C2)c(Cl)c1 (single isomer, unassigned) [Example 484-A] | 1.5 nM | 5.7 nM | – | –
7 | COc1cc(-c2cc(C(=O)N3CC[C@H](C(=O)NC4CCC(CC#N)(C(F)(F)F)CC4)CC34CC4)n[nH]2)c(F)cn1 (single isomer, unassigned) [Example 439-B] | 6.9 nM | 5.6 nM | – | –
8 | COc1cc(-c2cc(C(=O)N3CC[C@H](C(=O)NC4CCC(O)(C(F)(F)F)CC4O)CC34CC4)n[nH]2)c(F)cn1 (single isomer, unassigned) [Example 504-E] | 687 nM | 2260 nM | – | –
9 | COc1cc(-c2cc(C(=O)N3CC[C@H](C(=O)NC4CCC(N5C[C@@H](C)N[C@@H](C)C5)CC4)CC34CC4)n[nH]2)c(F)cn1 (single isomer, unassigned) [Example 460-A] | 800 nM | > 10000 nM | – | –
10 | COc1cc(-c2cc(C(=O)N3CC[C@H](C(=O)NC4CCC(O)(C(F)(F)F)CC4O)CC34CC4)n[nH]2)c(F)cn1 (single isomer, unassigned) [Example 504-C] | 15.7 nM | 258 nM | – | –
11 | CCC1CC(C(=O)N[C@H]2CC[C@@](O)(C(F)(F)F)CC2)CCN1C(=O)c1cc(-c2cc(OC)ncc2F)[nH]n1 (single isomer, unassigned) | – | – | 300 nM | 630 nM
12 | COc1cc(-c2cc(C(=O)N3CCC(C(=O)N[C@H]4CCN(CC(F)(F)F)C4)CC34CC4)n[nH]2)c(F)cn1 (single isomer, unassigned) [Example 332-A] | 15.6 nM | 13.8 nM | – | –
13 | COc1cc(-c2cc(C(=O)N3CC[C@H](C(=O)NC4CCC(O)(C(F)(F)F)CC4O)CC34CC4)n[nH]2)c(F)cn1 (single isomer, unassigned) [Example 504-B] | 48.7 nM | 1840 nM | – | –
14 | COc1ncc(F)c(-c2cc(C(=O)N3CCC(C(=O)N[C@H]4CC[C@@](O)(C(F)(F)F)CC4)CC34CC4)n[nH]2)c1C (single isomer, unassigned) [Example 493-A] | 3.2 nM | 16.9 nM | – | –
15 | COc1cc(-c2cc(C(=O)N3CC(C)C(C(=O)N[C@H]4CC[C@@](O)(C(F)(F)F)CC4)CC3C)n[nH]2)c(F)cn1 (single isomer, unassigned) [Example 298-B] | 833 nM | > 4000 nM | – | –
16 | COc1cc(-c2cc(C(=O)N3CC[C@H](C(=O)NC4CN(CC5(O)CC5)CC4(F)F)CC34CC4)n[nH]2)c(F)cn1 (single isomer, unassigned) [Example 470-B] | 21.1 nM | 216 nM | – | –
17 | COc1cc(-c2cc(C(=O)N3CCC(C(=O)NC4CCC(C(F)(F)F)N(C)C4)CC3)n[nH]2)c(Cl)cn1 (single isomer, unassigned) [Example 248-A] | 341 nM | 2530 nM | – | –
18 | COc1cc(-c2cc(C(=O)N3C4CCC3CC(C(=O)NC3CCC(C(F)(F)F)N(C)C3)C4)n[nH]2)c(F)cn1 (single isomer, unassigned) [Example 306-B] | 514 nM | 1040 nM | – | –
19 | COc1cc(-c2cc(C(=O)N3CC[C@H](C(=O)NC4CCC(C(F)(F)F)N(C)C4)CC34CC4)n[nH]2)c(F)cn1 (single isomer, unassigned) [Example 321-D] | 42.6 nM | 62.2 nM | – | –

Row | SMILES | AC50 [1, 3] | IC50 [2, 4] | AC50 ([1]; read-out: TR-FRET i-Ag, Co-R peptide (SMRT-ID2) recruitment, top final concentration 20 μM, tested form: mixture of four diastereomers (piperidin)) | IC50 ([2]; read-out: CTGlo 144 h UMUC9.5, G150, tested form: mixture of four diastereomers (piperidin))
20 | CC(O)c1cc(-c2cc(C(=O)N3CCC(C(=O)NCc4ncc(F)cc4Cl)CC34CC4)n[nH]2)c(F)cn1 (single isomer, unassigned) [Example 478-C] | 3060 nM | > 10000 nM | – | –
21 | COc1cc(-c2cc(C(=O)N3CCC(C(=O)NC4CCC(C(F)(F)F)N(C)C4)CC3)n[nH]2)c(Cl)cn1 (single isomer, unassigned) [Example 248-B] | 32.2 nM | 207 nM | – | –
22 | COc1cc(-c2cc(C(=O)N3CC[C@H](C(=O)NCC4CCc5nccn5C4)CC34CC4)n[nH]2)c(F)cn1 (single isomer, unassigned) [Example 356-B] | 152 nM | 9560 nM | – | –
23 | COc1cc(-c2cc(C(=O)N3CC[C@H](C(=O)NC4CCN(c5cccnc5)C4)CC34CC4)n[nH]2)c(F)cn1 (single isomer, unassigned) [Example 390-B] | 5.8 nM | 37.6 nM | – | –
24 | Cc1cc(-c2cc(C(=O)N3CCC(C(=O)NC4CCC5(CC4)OCCC5(F)F)CC34CC4)n[nH]2)c(F)cn1 (single isomer, unassigned) [Example 405-B] | 503 nM | 442 nM | – | –
25 | COc1cc(-c2cc(C(=O)N3CC[C@H](C(=O)NC4CN(C)CCC4F)CC34CC4)n[nH]2)c(F)cn1 (single isomer, unassigned) [Example 422-C] | 246 nM | 440 nM | – | –
26 | COc1cc(-c2cc(C(=O)N3CC[C@H](C(=O)NC4CCCN(C5COC5)C4)CC34CC4)n[nH]2)c(F)cn1 (single isomer, unassigned) [Example 421-A] | 216 nM | 437 nM | – | –
27 | Cc1cc(-c2cc(C(=O)N3[C@@H]4CC[C@H]3C[C@H](C(=O)NC3CCC(C(F)(F)F)OC3)C4)n[nH]2)c(F)cn1 (single isomer, unassigned) [Example 289-B] | 2.8 nM | 18.6 nM | – | –
28 | COc1cc(-c2cc(C(=O)N3CC[C@H](C(=O)NC4CCC5(CC4)OCC5(F)F)CC34CC4)n[nH]2)c(F)cn1 (single isomer, unassigned) [Example 374-A] | 8.1 nM | 6.6 nM | – | –
29 | Cc1cc(-c2cc(C(=O)N3[C@@H]4CC[C@H]3C[C@H](C(=O)NC3CCC(C(F)(F)F)N(C)C3)C4)n[nH]2)c(F)cn1 (single isomer, unassigned) [Example 311-A] | 106 nM | 414 nM | – | –
30 | COc1cc(-c2cc(C(=O)N3CC(C)C(C(=O)N[C@H]4CC[C@@](O)(C(F)(F)F)CC4)CC3C)n[nH]2)c(F)cn1 (single isomer, unassigned) [Example 298-E] | 33.8 nM | 132 nM | – | –
31 | COc1cc(-c2cc(C(=O)N3CC[C@H](C(=O)NC4CN(CC5(C(F)(F)F)CC5)CC4(F)F)CC34CC4)n[nH]2)c(F)cn1 (single isomer, unassigned) [Example 435-B] | 7.1 nM | 3.9 nM | – | –
32 | COc1cc(-c2cc(C(=O)N3CC[C@H](C(=O)Nc4cnn5ccc(C6CC6C#N)nc45)CC34CC4)n[nH]2)c(F)cn1 (single isomer, unassigned) [Example 466-A] | 6.8 nM | 61 nM | – | –
33 | COCCOC1(C(F)(F)F)CCC(NC(=O)[C@@H]2C[C@H]3CC[C@@H](C2)N3C(=O)c2cc(-c3cc(OC)ncc3F)[nH]n2)CC1 (single isomer, unassigned) [Example 304-B] | 106 nM | 514 nM | – | –
34 | COc1cc(-c2cc(C(=O)N3[C@@H]4CC[C@H]3C[C@H](C(=O)NC(C)c3nc(C(F)(F)F)no3)C4)n[nH]2)c(F)cn1 (single isomer, unassigned) [Example 290-B] | 5630 nM | 3360 nM | – | –
35 | COc1cc(-c2cc(C(=O)N3CC[C@H](C(=O)NC4CCN(C5COC56CCC6)C4)CC34CC4)n[nH]2)c(F)cn1 (single isomer, unassigned) [Example 464-C] | 10.4 nM | 51.6 nM | – | –
36 | COc1cc(-c2cc(C(=O)N3CC[C@H](C(=O)NC4CCC(C)N(C)C4)CC34CC4)n[nH]2)c(F)cn1 (single isomer, unassigned) [Example 423-B] | 124 nM | 174 nM | – | –
37 | COc1cc(-c2cc(C(=O)N3CC[C@H](C(=O)NC4CCC(N5CCOCC5)CC4)CC34CC4)n[nH]2)c(F)cn1 (single isomer, unassigned) | 1230 nM | 1970 nM | – | –
38 | CCC1CC(C(=O)N[C@H]2CC[C@@](O)(C(F)(F)F)CC2)CCN1C(=O)c1cc(-c2cc(OC)ncc2F)[nH]n1 (single isomer, unassigned) [Example 403-A] | 955 nM | 2000 nM | – | –

Like-named read-outs stand apart in the source and are kept apart here.
